For the experiment, the target named is P2Y purinoceptor 1 (Meleagris gallopavo, UniProt P49652). The experiment is described as follows: Agonist activity at turkey P2Y1 receptor expressed in human 1321N1 cells assessed as increase in intracellular calcium concentration by dual-excitation spectrofluorimetric analysis. The experiment is classed as functional, cell-based. In short, it runs like this:
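1321N1 astrocytoma cells stably expressing the receptor (turkey P2Y1, human P2Y2, human P2Y4, rat P2Y6) were grown with G-418 selection. Fura-2-loaded cell suspensions were exposed at 37 °C in 10 mM HEPES-buffered saline pH 7.4 with 1 mM CaCl2 and 1 mM MgCl2. Peak [Ca2+]i rise was measured over a range of concentrations to derive EC50.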

Protein sequences, listed by entry. Tags and fused reporters are not part of them. Lines headed by an entry give the natural chain unless they say otherwise; changes in a name come on top.
UniProt P49652: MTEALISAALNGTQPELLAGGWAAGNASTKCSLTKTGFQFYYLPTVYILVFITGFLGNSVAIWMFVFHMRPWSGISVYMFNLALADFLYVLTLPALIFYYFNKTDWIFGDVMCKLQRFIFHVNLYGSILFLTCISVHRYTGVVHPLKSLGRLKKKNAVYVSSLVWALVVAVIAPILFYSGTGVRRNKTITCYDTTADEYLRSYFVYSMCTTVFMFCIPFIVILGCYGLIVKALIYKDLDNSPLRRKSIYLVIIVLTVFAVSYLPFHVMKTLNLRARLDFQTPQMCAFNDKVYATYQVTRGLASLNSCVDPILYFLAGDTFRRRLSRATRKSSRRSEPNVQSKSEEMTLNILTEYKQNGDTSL

In the case of `CSc1nc(N)c2ncn([C@@H]3O[C@H](COP(=O)(O)OP(=O)(O)O)[C@@H](O)[C@H]3O)c2n1`, the concentration for a half-maximal effect (EC50) amounted to 4 nM.

The values above are taken from ChEMBL document CHEMBL1137702, “Identification of hydrolytically stable and selective P2Y(1) receptor agonists” (Eur J Med Chem, 2009).
